The text below walks through data of PMC9634796, “Opioid Antagonists from the Orvinol Series as Potential Reversal Agents for Opioid Overdose” (2022).

Sequences of proteins named here, by UniProt entry; tags and fusion partners are left off.
UniProt P41143, whole entry: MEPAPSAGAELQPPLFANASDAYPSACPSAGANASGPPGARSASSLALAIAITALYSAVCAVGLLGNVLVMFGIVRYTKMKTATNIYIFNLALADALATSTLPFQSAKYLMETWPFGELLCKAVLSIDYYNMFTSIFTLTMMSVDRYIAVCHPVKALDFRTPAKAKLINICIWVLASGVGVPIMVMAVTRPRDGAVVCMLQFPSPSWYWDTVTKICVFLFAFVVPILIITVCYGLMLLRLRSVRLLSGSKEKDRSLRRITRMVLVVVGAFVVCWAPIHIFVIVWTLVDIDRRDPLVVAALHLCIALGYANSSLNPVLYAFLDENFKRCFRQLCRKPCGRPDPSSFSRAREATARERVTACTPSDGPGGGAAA
UniProt P35372, whole entry: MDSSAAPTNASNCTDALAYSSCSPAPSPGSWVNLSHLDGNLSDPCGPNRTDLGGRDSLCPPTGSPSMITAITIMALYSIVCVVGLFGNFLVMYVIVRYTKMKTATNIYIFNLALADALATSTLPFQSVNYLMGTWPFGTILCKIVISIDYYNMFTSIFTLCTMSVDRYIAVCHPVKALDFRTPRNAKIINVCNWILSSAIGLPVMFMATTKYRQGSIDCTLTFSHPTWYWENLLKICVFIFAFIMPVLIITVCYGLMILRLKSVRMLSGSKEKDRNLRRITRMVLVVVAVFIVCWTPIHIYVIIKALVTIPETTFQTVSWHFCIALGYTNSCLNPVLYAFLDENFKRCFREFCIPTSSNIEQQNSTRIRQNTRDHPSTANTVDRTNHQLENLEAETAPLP

Structures are written as SMILES. A value given as a limit tells only on which side of the number the result lay.

The target in test [1] is T1, hKOR (kappa-opioid receptor) (Homo sapiens, UniProt P41145). The experiment in a line: […]GTPγS binding stimulation, CHO membrane homogenates. The settings on record: agonist mode; pH 7.4, 100 mM NaCl, 5 mM MgCl2, 30 μM GDP, 25 °C, 60 min; HCl salt. Background: GTPγS resists hydrolysis and so accumulates on activated G proteins.
In test [2] the target is T2, hDOR (delta-opioid receptor) (Homo sapiens, UniProt P41143). Described as above. The settings on record: agonist mode; pH 7.4, 100 mM NaCl, 5 mM MgCl2, 30 μM GDP, 25 °C, 60 min; HCl salt.
In test [3] the target is T3, hMOR (mu-opioid receptor) (Homo sapiens, UniProt P35372). The test is described as above. The conditions noted are these: agonist mode; pH 7.4, 100 mM NaCl, 5 mM MgCl2, 30 μM GDP, 25 °C, 60 min; HCl salt.
Test [4] addresses T1, hKOR (kappa-opioid receptor). Description: [3H]diprenorphine displacement, CHO membrane homogenates. The settings on record: read-out: Ki (nM) ^a / KOR; 25 °C, 1 h, 0.2–0.5 nM 3H-diprenorphine; HCl salt.
In test [5] the target is T2, hDOR (delta-opioid receptor). Described as above. The conditions noted are these: read-out: Ki (nM) ^a / DOR; 25 °C, 1 h, 0.2–0.5 nM 3H-diprenorphine; HCl salt.
The target of test [6] is T3, hMOR (mu-opioid receptor). The test is described as above. The conditions noted are these: read-out: Ki (nM) ^a / MOR; 25 °C, 1 h, 0.2–0.5 nM 3H-diprenorphine; HCl salt.

Usually EC50 stands for the midpoint of the concentration-response curve. For `CO[C@]12CC[C@@]3(C[C@]1(C)CO)[C@H]1Cc4ccc(O)c5c4[C@@]3(CCN1CC1CC1)[C@H]2O5`, the EC50 in test [1], in test [2] and in test [3] was more than 10000 nM throughout. Also, the Ki in test [4] amounted to 0.17 nM; in test [5] it was 0.47 nM; in test [6], 0.27 nM.
